{"source": "patent US5475032A", "about": "“2,4-disulfonyl phenyl butyl nitrone, its salts, and their use as pharmaceuticals” (Oklahoma Medical Research Foundation, priority 1995, dated 1995)", "key": {"[1]": {"tested_on": "acute lethal effects of adriamycin", "test": "adriamycin acute lethality and its prevention by pretreatment, DBA/2J mice (Example 13)"}, "[2]": {"tested_on": "neuron loss following brain ischemia and reperfusion injury", "test": "neuronal density after 5 min bilateral carotid occlusion, compound i.p. 30 min before ischemia (Example 3)", "type": "in vivo, gerbil", "conditions": "low dose levels, such as 3.2 mg/kg"}, "C57BL/6L mice": {"tested_on": "C57BL/6L mice", "test": "acute lethality, single i.p. doses of nitrone (Example 9)", "type": "in vivo, mouse", "conditions": "single i.p. doses; PBN at 560 mg/kg, Compound I at doses nearly twenty times as great"}, "[3]": {"test": "acute lethality, single i.p. doses of nitrone (Example 9)", "type": "in vivo, mouse", "conditions": "mouse, in vivo, ip"}}}
{"smiles": "CC(C)(C)[N+]([O-])=Cc1ccc(S(=O)(=O)O)cc1S(=O)(=O)O", "note": "[Compound I]", "values": [{"measurement": "shift to the right of the adriamycin lethality dose effect curve", "setting": "[1]; 100 mg/kg i.p. pretreatment, DBA/2J", "value": 5, "unit": "fold"}, {"measurement": "shifts in the adriamycin lethality dose effect curve", "setting": "[1]; pretreatment with 30 and 100 mg/kg", "value": "dose related shifts in the adriamycin lethality dose effect curve"}, {"measurement": "potency at preventing neuronal loss relative to prior art compounds", "setting": "[2]", "value": "2-3 times"}, {"measurement": "toxicity", "setting": "C57BL/6L mice", "value": "no toxicity"}, {"measurement": "survival", "setting": "[3]; 320 mg/kg single i.p. dose", "value": 100, "unit": "%"}, {"measurement": "survival", "setting": "[3]; 560 mg/kg single i.p. dose", "value": 100, "unit": "%"}, {"measurement": "survival", "setting": "[3]; 1000 mg/kg single i.p. dose", "value": 100, "unit": "%"}, {"measurement": "survival", "setting": "[3]; 3000 mg/kg single i.p. dose", "value": 100, "unit": "%"}, {"measurement": "survival", "setting": "[3]; 10000 mg/kg single i.p. dose", "value": 100, "unit": "%"}]}
